Experiment [1] addresses T1, CXCR3 (Homo sapiens, UniProt P49682).
T1 sequence (P49682 1-368): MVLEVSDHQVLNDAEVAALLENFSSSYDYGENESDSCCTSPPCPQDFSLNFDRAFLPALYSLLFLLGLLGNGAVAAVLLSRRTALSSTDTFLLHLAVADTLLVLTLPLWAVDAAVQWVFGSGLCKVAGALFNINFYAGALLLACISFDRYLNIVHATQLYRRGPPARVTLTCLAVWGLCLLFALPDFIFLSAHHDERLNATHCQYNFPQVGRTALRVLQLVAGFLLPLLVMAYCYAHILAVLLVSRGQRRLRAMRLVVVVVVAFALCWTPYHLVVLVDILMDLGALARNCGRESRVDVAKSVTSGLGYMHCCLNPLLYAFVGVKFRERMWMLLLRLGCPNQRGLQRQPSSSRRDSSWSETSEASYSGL
Nature of the experiment: Chemotaxis assay IP10, L1.2 recombinant cells expressing hCXCR3. Format: cell-based. To be noted: L1.2 hCXCR3 cells, IP10 around 0.3 nM, 4 hours. As to the method:
Human CXCR3 cDNA was amplified by PCR from a human cells cDNA library (Clontech) and subcloned into pcDNA3.1 (Invitrogen). Murine pre-B L1.2 cells were transfected with hCXCR3-pcDNA3.1 and were grown at 37° C., 5% CO2 in RPMI 1640 medium (Invitrogen, USA) supplemented with 5% heat inactivated fetal calf serum (Cancerra, Australia), 2 mM glutamine (Invitrogen), 50 units ml−1 penicillin, 50 μml−1 streptomycin. Stable transfectant clonal populations were selected using 800 μg/ml geneticin. […]
CXCR3 chemokine was diluted with a serial dilution of compounds in the chemotaxis medium (white RPMI 1640 (invitrogen), 5% Foetal Bovine Serum (invitrogen) at 1% DMSO final (chemotaxis medium). The concentration of the ligand IP10 was determined according to the EC80 to be around 0.3 nM. The chemokine/compounds solution was then added in the lower chamber of a chemotaxis system (neuroprobe). A framed filter (8 uM pore size) was placed on the lower chamber. L1.2 cells were centrifuged and resuspended in chemotaxis medium at 3×10^6 cells/ml and then diluted with the same serial dilution of compounds at 1% DMSO final. […] Cell migration ratio was calculated using the cyquant dye (Molecular Probes-C7026).

For experiment [2], the target named is T1, CXCR3. Nature of the experiment: CXCR3 Ca2+ mobilization (FLIPR), stable hCXCR3-CHO cell line, I-TAC stimulated. The experiment is classed as cell-based. Details: host or cells: CHO cells stably expressing hCXCR3. To be noted: hCXCR3-CHO cells, I-TAC 100 nM stimulated Ca2+ response; read-out: Ca-ITAC. Here is the method:
Human chinese hamster ovary (CHO) cell line stably expressing hCXCR3 was purchased from Euroscreen (Belgium) and culture in HAM's F12 (Invitrogen) containing 10% heat inactivated fetal calf serum (Cancerra, Australia), 50 units ml−1 penicillin, 50 μml−1 streptomycin, (Invitrogen, USA) and 400 μg/ml geneticin (G418) (Calbiochem, San Diego), according to the manufacturer.
CXCR3Ca^2+ mobilization was measured using a stable hCXCR3—CHO cell line and a microtiter-plate based assay using FLIPR^TETRA™ (Molecular Devices). In more detail, cells were harvested and plated into black 384-well plates (Becton-Dickinson) at a density of 15 000 cells per well and grown in the incubator for 18 hours. On the next day the media was aspirated and replaced with the cell loading buffer (HBSS—(Invitrogen) based buffer containing calcium indicator and signal enhancer from a commercial Ca2+ assay kit (Becton Dickinson). The plates were incubated for 60 minutes in the incubator, the test compounds were added and the plates equilibrated for 20 minutes at room temperature.
Plates were placed into FLIPR and the CXCR3 agonist (I-TAC, 100 nM) stimulated fluorescence change was quantitated. The activity of CXCR3 antagonists was determined as percent of the CXCR3 ligand I-TAC in the absence of the test compounds (=100% activity).
(A change in cytosolic calcium serves as a functional read-out for many receptors and channels.)

As to `O=S(=O)(c1ccc(Cl)cc1)N(Cc1ccc(-c2nnn[nH]2)c(F)c1)Cc1ccccc1F` [Example 82, 4-chloro-N-(2-fluorobenzyl)-N-[3-fluoro-4-(2H-tetrazol-5-yl)benzyl]benzenesulfonamide], the IC50 came out at 0.157 µM at CXCR3 [1] and 150 nM on CXCR3 [2].

Values taken from US20110028509A1, “Sulfonamides” (MERCK SERONO SA, priority 2008, published 2011).
